Measurements as given in patent publication US20170334865A1, “DDR2 INHIBITORS AND METHODS OF USING” (WASHINGTON UNIVERSITY, priority 2014, published 2017).

Protein sequences, listed by entry. Tags and fused reporters are not part of them. Residues count along the entry.
UniProt Q16832, 22-399 limits assumed: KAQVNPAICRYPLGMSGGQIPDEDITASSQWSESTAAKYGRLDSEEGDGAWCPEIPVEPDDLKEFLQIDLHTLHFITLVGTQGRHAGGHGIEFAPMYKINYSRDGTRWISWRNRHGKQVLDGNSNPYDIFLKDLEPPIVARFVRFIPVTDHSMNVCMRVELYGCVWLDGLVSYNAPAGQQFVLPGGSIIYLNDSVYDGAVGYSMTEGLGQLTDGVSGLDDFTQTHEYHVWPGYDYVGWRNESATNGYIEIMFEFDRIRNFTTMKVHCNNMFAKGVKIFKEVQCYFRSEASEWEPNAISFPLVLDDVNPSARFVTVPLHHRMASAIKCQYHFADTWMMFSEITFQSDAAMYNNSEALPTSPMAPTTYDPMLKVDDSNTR
UniProt Q16832, 22-855 limits assumed: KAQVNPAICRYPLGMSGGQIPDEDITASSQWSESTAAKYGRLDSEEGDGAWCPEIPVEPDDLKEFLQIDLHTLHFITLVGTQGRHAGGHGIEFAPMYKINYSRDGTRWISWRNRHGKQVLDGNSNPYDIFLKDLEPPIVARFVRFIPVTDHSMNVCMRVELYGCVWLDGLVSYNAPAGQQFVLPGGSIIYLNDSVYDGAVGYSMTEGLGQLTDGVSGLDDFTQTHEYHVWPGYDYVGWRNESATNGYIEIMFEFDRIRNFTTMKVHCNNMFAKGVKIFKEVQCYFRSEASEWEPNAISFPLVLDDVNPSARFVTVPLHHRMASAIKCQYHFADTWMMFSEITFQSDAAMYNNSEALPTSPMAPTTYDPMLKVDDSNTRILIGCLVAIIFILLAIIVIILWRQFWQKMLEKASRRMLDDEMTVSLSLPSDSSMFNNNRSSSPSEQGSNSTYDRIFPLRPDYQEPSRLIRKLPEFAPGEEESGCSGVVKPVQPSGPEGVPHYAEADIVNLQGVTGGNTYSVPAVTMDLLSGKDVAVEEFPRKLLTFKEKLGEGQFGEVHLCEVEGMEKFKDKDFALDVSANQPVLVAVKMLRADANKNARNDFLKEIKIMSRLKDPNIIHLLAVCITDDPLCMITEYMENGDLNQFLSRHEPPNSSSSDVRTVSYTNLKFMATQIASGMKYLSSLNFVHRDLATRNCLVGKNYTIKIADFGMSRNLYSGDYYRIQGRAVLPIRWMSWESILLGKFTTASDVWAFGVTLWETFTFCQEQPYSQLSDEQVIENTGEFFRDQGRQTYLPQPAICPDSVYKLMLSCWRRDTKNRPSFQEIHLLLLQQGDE

Columns and labels:
DDR2 signaling = test: Western blot analysis of DDR2 downstream signaling in HEK293 cells expressing DDR2; details: 1 μM, 6 hours, collagen I-coated plates; FIG. 3A, 3B
[1] = system: BT549 human metastatic breast cancer cells; test: migration through 3D collagen I matrix; details: 1 μM, over three days; FIG. 2E
4T1-Snail-CBG tumors = test: 4T1-Snail-CBG breast tumor bioluminescence imaging in mice; type: in vivo, BALB/cJ mice; details: 10 mg/kg via tail vein injection, at 4 hours; FIG. 4A
DDR2 = DDR2 (Homo sapiens, UniProt Q16832); test: DDR2 phosphorylation in DDR2 expressing HEK293 cells on collagen I, Western blot; details: 8 h, increasing amounts, FIG. 2A
[2] = system: Cells that do not express DDR2; test: growth inhibition and toxicity in cells that do not express DDR2; type: cell-based; details: several concentrations
[3] = system: 4T1-GFP-luc expressing cells; test: lung metastasis after tail vein injection of 4T1-GFP-luc cells
[4] = target: DDR2 extracellular domain (ECD) (Homo sapiens, UniProt Q16832); test: in vitro ELISA-type assay, binding of soluble DDR2 ECD to immobilized collagen triple helical peptide; details: for IC50: read-out: IC50, Inhibition of DDR2-collagen binding activity, values in nM

SMILES	downstream signaling: levels of phospho-ERK1/2, phospho-SRC, and SNAIL1 (DDR2 signaling)	distance of cell migration through 3D collagen I matrix relative to control [1]	Snail-CBG bioluminescence signal (Snail stability) (4T1-Snail-CBG tumors)	activation (phosphorylation) of DDR2, pY-DDR2 relative to total DDR2 (DDR2)	cell growth inhibition or cell toxicity [2]	tumor area per lung area ([3]; FIG. 5A)	whole mouse bioluminescence ([3]; imaging at days 1 and 7, FIG. 5B, 5C)	DDR2-collagen binding activity (absorbance at 490 nm) ([4]; 250 nM, 500 nM, or 2 μM test compound vs DMSO, effect even at lowest dose 250 nM, FIG. 1A, 1B)	manner of inhibition of DDR2 binding to collagen ([4]; increasing substrate concentration)	IC50 [4] [nM]
CCNS(=O)(=O)c1ccc(COc2ccc3nc4ccc(=O)cc-4oc3c2)cc1	reduced levels	impairs	decreased	inhibited activation	no cell growth inhibition or cell toxicity was observed	reduced	reduced	decreased	non-competitive	230
COC(=O)c1ccc(COc2ccc3nc4ccc(=O)cc-4oc3c2)cc1										347
